Results from patent US4299915A (priority 1977, dated 1981).

Experiments:
[1] = system: 8AG^R mutant fraction of S. typhimurium cultures; assay: Phenotypic expression: 8AG^R mutant fraction during grow-back after treatment; details: hourly samples, incubation in Minimal E post-treatment
[2] = system: S. typhimurium strain TM35; assay: Forward mutation assay (8-azaguanine resistance) in bacterial cells; details: 2 hour exposure; relatively low concentrations

Substance: N-methyl-N'-nitro-N-nitrosogunanidine
- 8AG^R mutant fraction when cultures are allowed to grow before plating [1]: drops significantly and then stabilizes at a constant level
- induced mutant fractions (M.F.) [2]: significantly higher than background levels
